# Measurements from ChEMBL document CHEMBL1240449, “Tricyclononene carboxamide derivatives as novel anti-HIV-1 agents” (Eur J Med Chem, 2010).
# Molecular target: Protease (Human immunodeficiency virus 1, UniProt Q9YQ12)
# Assay: Inhibition of HIV1 recombinant protease
# In short: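 Recombinant HIV-1 protease, purified, in 0.1 mol/L sodium acetate pH 5.0 with 0.9 mol/L NaCl, 1 mmol/L DTT, 1 mmol/L EDTA and a fluorescent peptide substrate. Graded compound concentrations were preincubated in this buffer for 20 min at 37 °C, then enzyme was added to start the reaction. Indinavir at 10 nM served as control. Percent inhibition and IC50 were calculated.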
smiles,measurement,value
CC(C)(C)NC(=O)[C@@H]1CN(Cc2cccnc2)CCN1C[C@@H](O)C[C@@H](Cc1ccccc1)C(=O)N[C@H]1c2ccccc2C[C@H]1O,IC50,< 0.01 µM
